Experimental data reported in patent US20170130064A1, “NOVEL POLYSILOXANE-BASED FOULING-RELEASE COATS COMPRISING POLY(OXYALKYLENE)-MODIFIED ALCOHOLS” (HEMPEL A/S, priority 2014, published 2017).
Read-outs that look alike come from different tables or passages of the source. Marks after values point to notes of the source that are not given here.

Legend:
[1] = Surface tension above critical micelle concentration in water (pendant drop method); format: physicochemical; details: 5 wt % of the compound in demineralized water, picture 5 seconds after drop
Procedure: The surface tension of a liquid/air interface can be determined by the “pendant drop method” as described in “Encyclopedia of Surface and Colloid Science” by Marcel Dekker, 2002.
Samples were prepared as 5 wt % of the compound in demineralized water mixed in a 50 mL PE bottle. At 5 wt % it is ensured that concentrations are well above the critical micelle concentration. The samples were left over-night on a shaking table to ensure saturation and/or mixing. The measurements by “pendant drop method” were performed with DataPhysics OCA-15 pus, Dynamic Contact Angle, using software SCA202 V 4.5.8. The needle was a Disposable needle SNP-D 165/137, and the volume drop was 15 microliters.
The picture from which the surface tension is calculated is taken 5 seconds after the drop is forced out of the syringe.

[2] = From supplier data sheet; cited from earlier work

Substance	Surface tension [1] [mN/m]	Surface tension [2]
Poly(ethylene glycol) 400 [PEG-9]	57	
PEG-9 octyl phenol		30.8* mN/m
